We go through 4 compounds from ChEMBL document CHEMBL3853348, “PPAR Agonists, Compounds, Pharmaceutical Compositions, and Methods of Use Thereof” (ACS Med Chem Lett, 2016).

pEC50: −log10 of the molar value.

The term pEC50 denotes −log10 of the EC50, conventionally taken in molar units. Low readings indicate a large EC50, high ones a small EC50.

The target of the assay is T1, Peroxisome proliferator-activated receptor delta (Homo sapiens, UniProt Q03181).
T1 sequence (Q03181 whole entry): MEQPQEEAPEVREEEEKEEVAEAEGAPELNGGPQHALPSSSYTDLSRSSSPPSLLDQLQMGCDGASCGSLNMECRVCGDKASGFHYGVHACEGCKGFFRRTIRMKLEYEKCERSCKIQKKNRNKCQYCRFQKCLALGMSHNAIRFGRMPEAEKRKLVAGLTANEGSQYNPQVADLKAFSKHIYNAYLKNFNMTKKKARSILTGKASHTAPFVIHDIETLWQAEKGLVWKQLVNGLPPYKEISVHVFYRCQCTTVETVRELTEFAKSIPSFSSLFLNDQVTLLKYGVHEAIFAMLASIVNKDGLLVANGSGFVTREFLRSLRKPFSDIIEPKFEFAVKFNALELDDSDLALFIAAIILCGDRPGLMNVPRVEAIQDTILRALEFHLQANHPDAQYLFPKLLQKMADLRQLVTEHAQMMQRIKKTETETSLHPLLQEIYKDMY
In turn, `C/C(=C\COc1ccc(C)cc1CN(C)C(=O)c1ccc(-c2ccco2)cc1)CCC(=O)O` gave a pEC50 of 7.65.
The value for `C/C(=C\COc1ccccc1CN(C)C(=O)c1ccc(-c2ccco2)c(Cl)c1)CCC(=O)O` was 8.80; that for `C/C(=C\COc1ccccc1CN(C)C(=O)c1ccc(-c2ccco2)c(F)c1)CCC(=O)O` was 8.71; that for `C/C(=C\COc1ccc(F)cc1CN(C)C(=O)c1ccc(-c2ccco2)cc1)CCC(=O)O` was 8.26.
